Assay results from patent US20050036994A1, “Compounds and methods for downregulating the effects of TGF-beta” (priority 2003, published 2005).

How the values were obtained:
[1] = system: mouse spleen T-cell lymphocytes; assay: 3[H]-thymidine incorporation assay, mouse spleen T-cell lymphocytes exposed to TGF-β; type: cell-based; settings: control mouse T-cell lymphocytes exposed to TGF-β
Protocol: In humans, the PBMC provides a source of lymphocytes but in the mouse, the spleen is a more practical source of such cells. The spleen from a C57BL mouse was excised, minced, squeezed using flat top forceps and suspended in 10 ml of RPMI containing 10% FCS. The cell suspension was allowed to sit for 5 minutes at room temperature to allow the large pieces of the spleen to separate from the suspension of single cells. The supernatant yielded a suspension of single cell lymphocytes that was carefully transferred to another tube. The single cell suspension of lymphocyte cells was collected by centrifugation at 150×g for 5 min. Erythrocytes were removed by centrifugation using a discontinuous gradient of Ficoll-Hypaque. The lymphocytes were collected by removing the band of interest from the gradient and then washed with RPMI containing 5% heat inactivated FCS. These cells were cultured for 3 to 5 days in RPMI containing 4 μg/ml Concanavalin A, 5% heat inactivated FCS, 200 units/ml IL2, 5 μg/ml insulin, 10 μg/ml transferrin and 50 μM β-mercaptoethanol. Concanavalin A is a mitogen for lymphocytes.
In these studies, mouse spleen cells were treated with IL-2 and concanavalin A to stimulate the proliferation of T-cell lymphocytes. These activated T-cell lymphocytes were utilized to examine the effect of AHSG. […]

[2] = system: human CD8+ lymphocytes from peripheral blood; assay: 3[H]-thymidine incorporation assay, CD8+ cells enriched from human peripheral lymphocytes exposed to TGF-β; type: cell-based; settings: native human CD8+ cells exposed to TGF-β
Excerpt: Human peripheral blood mononuclear cells (PBMC) containing T lymphocytes were obtained from healthy adults under informed consent. The desired fraction of the cells enriched for T-lymphocytes were isolated using standard Ficoll-Hypaque gradient centrifugation. The specific population of the lymphocytes may be advantageously separated from PBMC using ferric beads coated with an antibody that is specific to a surface marker on the desired lymphocytes. Cytotoxic T-cells, one of the most important cells for tumor immunity, express a surface marker protein called CD8. CD8^+ cells were enriched from the total PBMC using Dynabeads coated with an antibody directed against human CD8 (Dynal Inc, NY). Lymphocytes that bound to the beads were collected using a magnet and dissociated from the ferric beads using DNase I to digest a spacer DNA molecule that linked the ferric beads to the specific IgG. Following release of the cells, the residual ferric beads were removed using a magnet. This method helped to enrich for CD8^+ cells so that the population comprised 90 to 95% of such cells when assayed using FACS analysis. The resulting population of the cells was called CD8^+ enriched cells. […]

T8-IIM cells = assay: 3[H]-thymidine incorporation assay, T8-IIM cells exposed to TGF-β; type: cell-based, human; settings: unmodified T8-IIM cells exposed to TGF-β
Excerpt: Prior to using human AHSG to develop a therapy to modify cells of the immune system, we had to be certain of its abilities to block the actions of TGF-β. […] The first step was to use RT-PCR to amplify from total HepG2 RNA the AHSG sequence and clone this cDNA into an expression vector driven by the SRa promoter. The resulting expression vector was called pSRα-AHSG (see map 1) [FIG. 5]. […] The first set of experiments used T8-IIM cells because the growth of these cells is known to be inhibited by TGF-β (Miyamoto, K. et al Jpn J Concer Res 82:1178 (1991)).
In order to be useful as cell based cancer therapy, cellular expression of AHSG must have the ability to antagonize the effects of TGF-β. For these experiments, we chose the T8-IIM cells because this is a CD8+cell line and its immune function is dependent on TGF-β. Exposure of unmodified T8-IIM cells to TGF-β suppressed their ability to incorporate ^3[H]-thymidine to 79±4% when compared to control. […] In these cells, the incorporation of ^3[H]-thymidine was the same as that from cells not exposed to TGF-β. This finding meant that the expression of AHSG blocked the suppressing effects of TGF-β. Since TGF-β expressing cancer cells use this mechanism to escape detection from immune system cells, this observation supported our goal to alter the inherent activity of CTLs to thus by-pass the cloaking mechanisms used by cancer cells.

Jurkat cells = assay: 3[H]-thymidine incorporation assay, Jurkat cells exposed to TGF-β; settings: control Jurkat cells exposed to TGF-β (2 ng/ml)

Substance: TGF-β: active form of TGF-β1 (R&D Systems or BioShop Canada) added to lymphocytes
- 3[H]-thymidine incorporation compared to untreated cells [1]: 79%
- 3[H]-thymidine incorporation compared to control treated cells [2]: 63+/−2%
- 3[H]-thymidine incorporation compared to control (T8-IIM cells): 79±4%
- 3[H]-thymidine incorporation of control cells (Jurkat cells): 57%
